This passage reports IC50 results from publication PMC4730229, “Benzobisthiazoles Represent a Novel Scaffold for Kinase Inhibitors of CLK Family Members” (Biochemistry, 2015).

Assay [1] addresses T1, CLK3 (Homo sapiens, UniProt P49761).
T1 construct: The catalytic domains of CLK1, CLK2, CLK3, CLK2K193A, and CLK2K193A/D290A were tagged with GST; GST (N); made in house
Put plainly: Kinase inhibition assay, IC50. Format: biochemical. On the procedure:
(§1) A small molecule inhibitor library consisting of 1600 compounds was obtained from LIFE Chemicals (Kiev, Ukraine). These compounds are part of the CUTE kinase collection that was predicted by in silico profiling against a panel of targets and includes potent kinase inhibitor compounds.[16] Compounds were dissolved as 10 mM stocks in DMSO and stored at room temperature, in the presence of 5% humidity and 5% oxygen in the dark in a Roylan Storage Pod system. Compounds were dispensed into white 384-well plates using the Labcyte Echo520 instrument at a final concentration of 10 μM. Next, 5 μL of 144.92 nM purified GST-CLK2cd in kinase assay buffer A was added to the compounds, incubated for 10 min at room temperature prior to addition of 5 μL of a 2 μM ATP/10 μM S6K peptide mixture, and incubated again for 60 min at room temperature. Subsequently, 10 μL of Kinase-Glo was added to the wells, and the plates were analyzed after 10 min on the Envision II multilabel plate reader (PerkinElmer). […] The percentage of inhibition is equal to 100 – [(total ATP before assay – remaining ATP in assay with compound)/(total ATP before assay – remaining ATP in assay with DMSO) × 100]. […] NR9 was obtained from Enzo Life Sciences (catalog no. ALX-270-463-M001). […]

Assay [2] addresses T2, Dyrk1A (Homo sapiens, UniProt Q13627).
T2 construct: purchased Invitrogen PV3785
As to the kind of experiment: Kinase inhibition assay, IC50. Format: biochemical. On the procedure:
as §1

Molecules are shown by their SMILES.

In the case of `CCN1/C(=C/C(C)=O)Sc2ccc(OC)cc21` [TG003, reference compound], the values for the half-maximal inhibitory concentration (IC50) in assay [1] and in assay [2] were more than 3 µM and 0.204 µM, respectively.
